Measurements taken from article PMC12667481, “APOL2 Stabilizes Ku80 to Confer NHEJ‐Mediated Radioresistance in Gastric Cancer” (Advanced Science, 2025).

Target: T1, Flag-Ku80 (UniProt P13010 1-732)
T1 construct: Ku80 (XRCC5); The origin of the Flag-Ku80 plasmid is not described in the plasmid section; also called XRCC5; source: HEK293T, transfected, in lysate (co-IP); HEK293T, transfected, purified on anti-Flag agarose and eluted with 3xFLAG peptide (pull-down)
Assay: pull-down; purified GST or GST-APOL2 (5 µg) incubated overnight at 4 °C with Flag-Ku80 or Flag-Ku70 eluted from anti-Flag agarose; glutathione agarose in PBS with protease inhibitors for 2 h; washed three times with PBS; Western blot
Details: both partners purified

- binding result: binds
B1: GST-APOL2 (natural protein, UniProt Q9BQE5 1-337, looked up)
chain: MNPESSIFIEDYLKYFQDQVSRENLLQLLTDDEAWNGFVAAAELPRDEADELRKALNKLASHMVMKDKNRHDKDQQHRQWFLKEFPRLKRELEDHIRKLRALAEEVEQVHRGTTIANVVSNSVGTTSGILTLLGLGLAPFTEGISFVLLDTGMGLGAAAAVAGITCSVVELVNKLRARAQARNLDQSGTNVAKVMKEFVGGNTPNVLTLVDNWYQVTQGIGRNIRAIRRARANPQLGAYAPPPHVIGRISAEGGEQVERVVEGPAQAMSRGTMIVGAATGGILLLLDVVSLAYESKHLLEGAKSESAEELKKRAQELEGKLNFLTKIHEMLQPGQDQ
notes: Apolipoprotein L2 (APOL2)
